According to US11738082B2, “High concentration protein formulations with reduced viscosity” (Bhami's Research Laboratory, Pvt. Ltd., priority 2017, dated 2023):
Counter-ions that a name gives are not always drawn.

Key:
[1] = tested on: Human Gamma Globulin (HGG), GLOBUCEL®; experiment: Viscosity of aqueous solutions of Human Gamma Globulin (Cambridge VISCOlab5000 or DV2T cone and plate viscometer)
antigen = experiment: Trastuzumab-Specific Sandwich ELISA assay (antigen binding); conditions: after storage for 90 days at 4° C.; formulated with tryptophan and nicotinic acid (acid form)
Protocol: Samples of Trastuzumab were prepared as described above. […] (Table 34).

Row | Viscosity (cP) @ 25° C. ([1]; HGG 210 mg/mL, excipient 10 mg/mL (30 mM), 25 mM citrate buffer pH 6.0) [cP] | Viscosity, cP ([1]; HGG 220 mg/mL, excipient 10 mg/mL, citrate buffer pH 6.0, 25° C.) [cP] | antigen binding (antigen) | Molecule
1 | 102 | 102 |  | Cc1ncc(C[n+]2csc(CCO)c2C)c(N)n1 [Thiamine-HCl]
2 |  |  | did not alter | Trastuzumab: Commercially obtained Trastuzumab, HERCEPTIN®, dialyzed against 25 mM phosphate buffer, pH 6.0
